# Measurements published in PubChem BioAssay AID504672 (Sanford-Burnham Center for Chemical Genomics, 2011).
# System: S. cerevisiae tim10 strain, luminescence counterscreen
# Assay: TIM10 strain luminescence inhibitors – S. cerevisiae, uHTS hits, counter-screen for tim23-1 inhibitor project, dose response (AID 504672);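 further: yeast grew roughly 22 hours at 25 °C before the luminescence read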
compound,measurement,value
COc1ccc(C(C[N+](=O)[O-])c2c(C)[nH]n(-c3ccccc3)c2=O)cc1 (stereo unspecified),IC50,14.6 µM
